In PubChem BioAssay AID602229 (The Scripps Research Institute Molecular Screening Center, 2012):
The list shows a part of the results, in another mix than the full data. Some tests of the compounds listed are not included; inactive here does not mean inactive elsewhere. Activity calls are given as the source filed them.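 Rule for the calls: active = inhibition above the mean of all tested compounds plus 3 SD (cut at about 70% in these data); inactive = the rest.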

By UniProt entry, the sequences of proteins in these tests, tags left out.
UniProt Q9Y5X4, whole entry: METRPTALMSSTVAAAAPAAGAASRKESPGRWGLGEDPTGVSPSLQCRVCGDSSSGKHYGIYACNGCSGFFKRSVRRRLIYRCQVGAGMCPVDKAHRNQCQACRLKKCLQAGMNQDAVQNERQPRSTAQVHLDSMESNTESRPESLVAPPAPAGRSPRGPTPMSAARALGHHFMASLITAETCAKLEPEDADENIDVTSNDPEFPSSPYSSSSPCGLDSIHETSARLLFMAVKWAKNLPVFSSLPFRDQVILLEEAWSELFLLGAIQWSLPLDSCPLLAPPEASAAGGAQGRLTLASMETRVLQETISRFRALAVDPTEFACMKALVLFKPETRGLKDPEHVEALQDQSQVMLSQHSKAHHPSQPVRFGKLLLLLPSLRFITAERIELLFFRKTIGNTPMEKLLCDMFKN

Each compound was assayed against Photoreceptor-specific nuclear receptor (Homo sapiens) (UniProt Q9Y5X4) (assay: NCOR release from NR2E3 in cells – cell-based, luminescence, CHO-S, Gal4-NCOR/VP16-NR2E3, primary screen (AID 602229;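 note: 0% = DMSO with NR2E3 transfected cells and 100% = cells lacking NR2E3 construct; higher means lower luciferase signal from less NR2E3 corepressor binding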)). Conditions: CHO-S Gal4-NCOR/VP16-NR2E3 two-hybrid, luciferase; at 3.98 µM; active compounds read high.
For `C=C(C)C#CC(O)(C(=O)OC1CCN(C)CC1)c1ccccc1` (stereo unspecified), the inhibition of corepressor binding was inactive: 10.9%. With `COc1ccc(Br)c(C(=O)NCC2(N3CCCCC3)CCCCC2)c1` the inhibition of corepressor binding was inactive: 11.8%. With `CC(C)Oc1ccc(C(=O)NCC2(N(C)C)CCCCC2)cc1` the inhibition of corepressor binding was inactive: -7.47%. For `O=C(OCCN1CCCC1)C(O)(c1ccccc1)c1ccccc1`, the inhibition of corepressor binding was inactive: -15.2%. With `CN(C)c1cccc(C(=O)NCC2(N(C)C)CCCCC2)c1` the inhibition of corepressor binding was inactive: -7.19%. `O=C(OC1CN2CCC1CC2)C(CO)(c1ccccc1)c1ccccc1` (stereo unspecified) was tested, and the inhibition of corepressor binding was inactive: -11.6%. With `COc1cccc(C(=O)NCC2(N3CCCCC3)CCCCC2)c1` the inhibition of corepressor binding was inactive: 8.86%. For `COc1ccc(Cl)cc1C(=O)NCC1(N(C)C)CCCCC1`, the inhibition of corepressor binding was inactive: -4.32%. In the case of `O=C(NCC1(N2CCCCC2)CCCCC1)c1cccc(Cl)c1`, the inhibition of corepressor binding is reported as inactive: 25.2%. For `CN(C)C1(CNC(=O)c2ccc(Br)cc2)CCCCC1`, the inhibition of corepressor binding was inactive: -45.4%. `COc1cc(C(=O)NCC2(N(C)C)CCCCC2)c([N+](=O)[O-])cc1OC` was tested, and the inhibition of corepressor binding was inactive: -2.77%. `C=CCN1CCN(CCOC(=O)C(O)(c2ccccc2)c2ccccc2)CC1` was tested, and the inhibition of corepressor binding was inactive: -0.62%. In the case of `O=C(NCC1(N2CCCCC2)CCCCC1)c1cc(F)c(F)cc1Cl`, the inhibition of corepressor binding is reported as inactive: -8.05%. For `COc1ccc(C(=O)NCC2(N(C)C)CCCCC2)cc1`, the inhibition of corepressor binding was inactive: -14.1%. For `Cc1cc(C(=O)NCC2(N3CCCCC3)CCCCC2)ccc1[N+](=O)[O-]`, the inhibition of corepressor binding was inactive: 5.54%. For `CCN1CCCC(OC(=O)C2(O)c3ccccc3C=Cc3ccccc32)C1` (stereo unspecified), the inhibition of corepressor binding was inactive: -0.69%. In the case of `O=C(NCC1(N2CCCCC2)CCCCC1)c1cccc(Br)c1`, the inhibition of corepressor binding is reported as inactive: 6.63%. `Cc1ccccc1C(=O)NCC1(N2CCCCC2)CCCCC1` was tested, and the inhibition of corepressor binding was inactive: -2.71%. With `CN(C)C1CCCC1OC(=O)C(O)(c1ccccc1)c1ccccc1` (stereo unspecified) the inhibition of corepressor binding was inactive: 11.8%. `CN(C)c1ccc(C(=O)NCC2(N(C)C)CCCCC2)cc1` was tested, and the inhibition of corepressor binding was inactive: -4.21%. With `CCN(CC)CC(C)C(C)OC(=O)C(O)(c1ccccc1)c1ccccc1` (stereo unspecified) the inhibition of corepressor binding was inactive: -14.9%. For `COc1cc(SC)ccc1C(=O)NCC1(N(C)C)CCCCC1`, the inhibition of corepressor binding was inactive: -19.9%. For `CC(C)N1C(=O)CC2(CCN(CCOC(=O)C(O)(c3ccccc3)c3ccccc3)CC2)C1=O`, the inhibition of corepressor binding was inactive: -18.3%. `Cc1ccc(C(=O)NCC2(N3CCCCC3)CCCCC2)cc1` was tested, and the inhibition of corepressor binding was inactive: 0.64%. `O=C(NCC1(N2CCCCC2)CCCCC1)c1cc([N+](=O)[O-])ccc1Cl` was tested, and the inhibition of corepressor binding was inactive: -12.4%. With `CN1[C@@H]2CC[C@H]1CC(OC(=O)C(O)(c1ccccc1)c1ccccc1)C2` (stereo partly specified) the inhibition of corepressor binding was inactive: 4.46%.
